Values of other authors in article PMC2666074.

Biological target: SIP (UniProt Q9HB71)
Experiment: fluorescence spectroscopy

Question: Which Kd does the source give for S100A6 (from UniProt P06703) here?
Answer: 1000 nM
